# According to ChEMBL document CHEMBL1177646, “Inhibition of prolyl oligopeptidase with a synthetic unnatural dipeptide” (Bioorg Med Chem, 2010):
# What was measured:
# [1] = target: T1, Prolyl endopeptidase (Homo sapiens) (UniProt P48147); experiment: Inhibition of prolyl oligopeptidase assessed as fractional activity at 100 uM
# T1 sequence (whole entry): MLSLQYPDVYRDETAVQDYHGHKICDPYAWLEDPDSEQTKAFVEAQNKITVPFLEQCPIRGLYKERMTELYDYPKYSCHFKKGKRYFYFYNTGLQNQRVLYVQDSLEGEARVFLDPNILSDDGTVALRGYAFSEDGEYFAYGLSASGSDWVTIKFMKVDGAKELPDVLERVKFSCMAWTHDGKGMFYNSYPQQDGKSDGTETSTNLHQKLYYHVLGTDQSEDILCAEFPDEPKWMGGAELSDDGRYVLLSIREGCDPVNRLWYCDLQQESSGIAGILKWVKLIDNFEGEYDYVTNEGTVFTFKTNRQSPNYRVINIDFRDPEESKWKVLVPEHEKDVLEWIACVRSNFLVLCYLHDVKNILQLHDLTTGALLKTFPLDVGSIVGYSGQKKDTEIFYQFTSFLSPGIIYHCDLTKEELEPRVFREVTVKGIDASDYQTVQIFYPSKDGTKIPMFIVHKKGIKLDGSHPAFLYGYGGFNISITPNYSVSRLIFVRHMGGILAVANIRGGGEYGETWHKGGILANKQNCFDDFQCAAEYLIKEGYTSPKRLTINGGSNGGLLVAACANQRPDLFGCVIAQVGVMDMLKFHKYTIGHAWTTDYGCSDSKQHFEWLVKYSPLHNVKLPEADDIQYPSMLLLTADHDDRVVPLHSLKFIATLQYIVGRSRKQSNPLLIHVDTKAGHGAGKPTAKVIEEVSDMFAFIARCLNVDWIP
# [2] = target: T1, Prolyl endopeptidase (Homo sapiens); experiment: Inhibition of prolyl oligopeptidase assessed as fractional activity at 2 uM
# [3] = target: T1, Prolyl endopeptidase (Homo sapiens); experiment: Inhibition of prolyl oligopeptidase assessed as fractional activity at 5 uM
# [4] = target: T1, Prolyl endopeptidase (Homo sapiens); experiment: Inhibition of prolyl oligopeptidase assessed as fractional activity at 15 uM
# [5] = target: T1, Prolyl endopeptidase (Homo sapiens); experiment: Inhibition of prolyl oligopeptidase assessed as fractional activity at 75 uM
# [6] = target: T1, Prolyl endopeptidase (Homo sapiens); experiment: Inhibition of prolyl oligopeptidase assessed as fractional activity at 50 uM
# [7] = target: T1, Prolyl endopeptidase (Homo sapiens); experiment: Inhibition of prolyl oligopeptidase assessed as fractional activity at 1 uM
# [8] = target: T1, Prolyl endopeptidase (Homo sapiens); experiment: Inhibition of prolyl oligopeptidase assessed as fractional activity at 4 uM
# [9] = target: T1, Prolyl endopeptidase (Homo sapiens); experiment: Inhibition of prolyl oligopeptidase assessed as fractional activity at 25 uM
# [10] = target: T1, Prolyl endopeptidase (Homo sapiens); experiment: Inhibition of prolyl oligopeptidase assessed as fractional activity at 3 uM
# [11] = target: T1, Prolyl endopeptidase (Homo sapiens); experiment: Inhibition of prolyl oligopeptidase assessed as fractional activity at 10 uM
# [12] = target: T1, Prolyl endopeptidase (Homo sapiens); experiment: Inhibition of prolyl oligopeptidase assessed as fractional activity at 20 uM
# [13] = target: T1, Prolyl endopeptidase (Homo sapiens); experiment: Inhibition of prolyl oligopeptidase assessed as fractional activity at 0.075 uM
# [14] = target: T1, Prolyl endopeptidase (Homo sapiens); experiment: Inhibition of prolyl oligopeptidase assessed as fractional activity at 0.0005 uM
# [15] = target: T1, Prolyl endopeptidase (Homo sapiens); experiment: Inhibition of prolyl oligopeptidase assessed as fractional activity at 0.0025 uM
# [16] = target: T1, Prolyl endopeptidase (Homo sapiens); experiment: Inhibition of prolyl oligopeptidase assessed as fractional activity at 0.0010 uM
# [17] = target: T1, Prolyl endopeptidase (Homo sapiens); experiment: Inhibition of prolyl oligopeptidase assessed as fractional activity at 0.0001 uM
# [18] = target: T1, Prolyl endopeptidase (Homo sapiens); experiment: Inhibition of prolyl oligopeptidase assessed as fractional activity at 2.5 uM
# [19] = target: T1, Prolyl endopeptidase (Homo sapiens); experiment: Inhibition of prolyl oligopeptidase assessed as fractional activity at 0.0050 uM
# [20] = target: T1, Prolyl endopeptidase (Homo sapiens); experiment: Inhibition of prolyl oligopeptidase assessed as fractional activity at 0.010 uM
# [21] = target: T1, Prolyl endopeptidase (Homo sapiens); experiment: Inhibition of prolyl oligopeptidase assessed as fractional activity at 0.1 uM
# [22] = target: T1, Prolyl endopeptidase (Homo sapiens); experiment: Inhibition of prolyl oligopeptidase assessed as fractional activity at 0.085 uM
# [23] = target: T1, Prolyl endopeptidase (Homo sapiens); experiment: Inhibition of prolyl oligopeptidase assessed as fractional activity at 0.025 uM
# [24] = target: T1, Prolyl endopeptidase (Homo sapiens); experiment: Inhibition of prolyl oligopeptidase assessed as fractional activity at 0.0075 uM
# [25] = target: T1, Prolyl endopeptidase (Homo sapiens); experiment: Inhibition of prolyl oligopeptidase assessed as fractional activity at 0.050 uM
smiles,measurement,setting,value
O=C(NCC(=O)N1CCC[C@H]1C(=O)Nc1ccc([N+](=O)[O-])cc1)OCc1ccccc1,Activity,[1],0.997
same,Activity,[2],0.0417
same,Activity,[3],0.181
same,Activity,[4],0.361
same,Activity,[5],1
same,Activity,[6],0.722
same,Activity,[7],0
same,Activity,[8],0.0694
same,Activity,[9],0.514
same,Activity,[10],0.0417
same,Activity,[11],0.208
same,Activity,[12],0.333
Nc1ccc([N+](=O)[O-])cc1,Activity,[13],0.189
same,Activity,[14],0.984
same,Activity,[3],0.00978
same,Activity,[15],0.95
same,Activity,[16],0.896
same,Activity,[17],0.99
same,Activity,[18],0.016
same,Activity,[19],1.02
same,Activity,[20],0.748
same,Activity,[21],0.0216
same,Activity,[22],0.127
same,Activity,[11],0
same,Activity,[23],0.481
same,Activity,[24],0.924
same,Activity,[25],0.39
